In patent US6034215A, “3-amino-2-oxo-1-piperidnercetic derivatives as enzyme inhibitors” (Corvas International, Inc., priority 1997, dated 2000):

Assays:
human alpha-thrombin = human alpha-thrombin (Homo sapiens, UniProt P00734); test: Kinetic analysis in an in vitro thrombin inhibition assay (Ki); details: Table 1; Mean ± SD, n = 3; steady state velocities over 40 minutes; tested form: TFA
human α-thrombin = human α-thrombin (Homo sapiens, UniProt P00734); test: In vitro enzyme assay for specificity: Thrombin (fIIa) assay, IC50; details: read-out: IC50 (nM) thrombin; Table 3; tested form: TFA

N=C(N)NCCC[C@@H](C=O)NC(=O)CN1CCC[C@H](NS(=O)(=O)Cc2ccccc2)C1=O was tested, and the Ki (human alpha-thrombin) was 1.01 nM and the IC50 (human α-thrombin) was 6.2 nM.
